# Source: patent US6635771B2, “N-benzhydryl indole compounds” (Wyeth, priority 2001, dated 2003)
# Molecular target: T1, cPLA2 (Homo sapiens, UniProt P47712)
# T1 sequence (P47712 1-749): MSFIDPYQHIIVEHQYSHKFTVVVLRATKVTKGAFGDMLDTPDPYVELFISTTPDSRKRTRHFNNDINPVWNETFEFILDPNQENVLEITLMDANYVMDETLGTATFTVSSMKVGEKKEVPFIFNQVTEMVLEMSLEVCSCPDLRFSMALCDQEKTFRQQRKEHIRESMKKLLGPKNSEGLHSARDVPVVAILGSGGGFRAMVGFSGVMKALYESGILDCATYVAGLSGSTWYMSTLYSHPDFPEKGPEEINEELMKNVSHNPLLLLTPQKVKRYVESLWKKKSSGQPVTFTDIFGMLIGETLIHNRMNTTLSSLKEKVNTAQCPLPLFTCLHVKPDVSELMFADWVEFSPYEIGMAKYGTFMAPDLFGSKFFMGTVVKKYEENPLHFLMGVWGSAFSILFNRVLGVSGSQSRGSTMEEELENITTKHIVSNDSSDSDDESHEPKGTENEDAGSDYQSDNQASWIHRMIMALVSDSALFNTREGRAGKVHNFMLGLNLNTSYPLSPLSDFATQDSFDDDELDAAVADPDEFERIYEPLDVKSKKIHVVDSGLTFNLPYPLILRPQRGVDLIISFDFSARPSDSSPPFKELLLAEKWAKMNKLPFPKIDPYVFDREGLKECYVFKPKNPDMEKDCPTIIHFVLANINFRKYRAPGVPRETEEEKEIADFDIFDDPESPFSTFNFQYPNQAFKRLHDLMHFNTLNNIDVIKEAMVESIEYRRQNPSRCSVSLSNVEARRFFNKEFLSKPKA
# Experiment: Coumarine Assay
# Format: biochemical
# Conditions: 60 μM 7-hydroxycoumarinyl 6-heptenoate substrate, 4 μg cPLA2, pH 7.5, fluorescence ex 360 nm / em 460 nm; read-out: Coumarin IC50
row,IC50,SMILES
1,370 nM,"O=C(O)c1ccc(OCCc2c(CCNS(=O)(=O)CC3CCCCC3)n(C(c3ccccc3)c3ccccc3)c3ccc(Cl)cc23)cc1 [Example 53, 4-{2-[1-benzhydryl-5-chloro-2-(2-{[(cyclohexylmethyl)sulfonyl]amino}ethyl)-1H-indol-3-yl]ethoxy}benzoic acid]"
2,< 7400 nM,"O=C(O)c1ccc(OCCc2c(CCNS(=O)(=O)CCn3cccn3)n(C(c3ccccc3)c3ccccc3)c3ccc(Cl)cc23)cc1 [Example 88, 4-(2-{1-Benzhydryl-5-chloro-2-[2-(2-pyrazol-1-yl-ethanesulfonylamino)-ethyl]-1H-indol-3-yl}-ethoxy)-benzoic acid]"
3,1100 nM,"O=C(O)c1ccc(OCCc2c(CCNS(=O)(=O)CCN3CCSC3)n(C(c3ccccc3)c3ccccc3)c3ccc(Cl)cc23)cc1 [Example 98, 4-(2-{1-benzhydryl-5-chloro-2-[2-({[2-(1,3-thiazolidin-3-yl)ethyl]sulfonyl}amino)ethyl]-1H-indol-3-yl}ethoxy)benzoic acid]"
4,1200 nM,"O=C(O)c1ccc(OCCc2c(CCNS(=O)(=O)CCN3CCSCC3)n(C(c3ccccc3)c3ccccc3)c3ccc(Cl)cc23)cc1 [Example 116, 4-(2-{1-Benzhydryl-5-chloro-2-[2-(2-thiomorpholin-4-yl-ethanesulfonylamino)-ethyl]-1H-indol-3-yl}ethoxy)-benzoic acid]"
5,1400 nM,"O=C(O)c1ccc(OCCc2c(CCNS(=O)(=O)CCn3ccnc3)n(C(c3ccccc3)c3ccccc3)c3ccc(Cl)cc23)cc1 [Example 125, 4-(2-{1-Benzhydryl-5-chloro-2-[2-(2-imidazol-1-yl-ethanesulfonylamino)-ethyl]-1H-indol-3-yl}-ethoxy)-benzoic acid]"
